Consider 52 molecules from PubChem BioAssay AID1422 (Emory University Molecular Libraries Screening Center, 2008).

Chains of the proteins cited; added tags and fusions are not shown. Lines headed by an entry give the natural chain unless they say otherwise; changes in a name come on top.
UniProt P43116: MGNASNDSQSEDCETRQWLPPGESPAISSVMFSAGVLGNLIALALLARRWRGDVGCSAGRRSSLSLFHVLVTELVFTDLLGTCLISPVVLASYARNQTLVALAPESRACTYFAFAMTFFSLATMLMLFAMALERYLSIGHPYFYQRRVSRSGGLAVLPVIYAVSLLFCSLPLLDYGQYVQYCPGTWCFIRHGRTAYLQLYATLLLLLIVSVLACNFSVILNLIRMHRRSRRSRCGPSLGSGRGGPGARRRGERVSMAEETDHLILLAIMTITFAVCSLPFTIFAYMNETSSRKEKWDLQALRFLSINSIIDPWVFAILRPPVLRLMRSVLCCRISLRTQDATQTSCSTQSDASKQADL

Structures are written as SMILES. Where “and” joins values, the source holds several entries; their conditions need not be identical. Equal entries are not always repeated. The entries are a selection whose mix differs from that of the whole data set. Calls of active or inactive are those of the source.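 The calls were made as follows: active = percent inhibition above 40 after rounding to a whole number; inactive = the rest.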

The target of the assay is Prostaglandin E2 receptor EP2 subtype (Homo sapiens) (UniProt P43116). The experiment in a line: human EP2 receptor antagonists, primary screen, TR-FRET cAMP, C6 glioma cells (AID 1422).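 Also: rat C6 glioma host cells with rolipram phosphodiesterase inhibitor present; the protocol text gives 20 µM as final concentration.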 The note with it: C6 glioma cells expressing human EP2, cAMP TR-FRET; at 25 µM; hits give high values; cells stimulated with saturating PGE2. On the technique in general: Time-resolved FRET reads energy transfer from a long-lived donor to a nearby acceptor.
What is called inhibition is the drop in the measured response relative to a control, in per cent. For the molecule `O=[As](O)(O)c1cccnc1`, the inhibition was inactive: 3.54%.

`CN(C(=O)Cc1ccc(Cl)c(Cl)c1)[C@@H]1CC[C@]2(CCCO2)C[C@H]1N1CCCC1`: the inhibition was inactive: 14.7%.

For the molecule `O=C(OC1CN2CCC1CC2)c1ccc(Cl)cc1` (configuration not stated), the inhibition was inactive: 12%.

`COC(=O)c1nsnc1NCCCl`: the inhibition was inactive: 8.19%.

On to `CC1(CBr)Cn2c(nc3ccccc3c2=O)S1` (configuration not stated), for which the inhibition was inactive: -2.69%.

Turning to `O=[As](O)(c1ccccc1Br)c1ccccc1Br`, the inhibition is inactive: 7.75%.

As to `CN(C(=O)Cc1ccc(Cl)c(Cl)c1)[C@@H]1CCCC[C@H]1N1CCCC1`, the inhibition was inactive: 15.8% and inactive: 12.7%.

Take `CC(C)/C=N\N=C(\N)N[N+](=O)[O-]`: the inhibition was inactive: 1.17%.

On to `CC(C)(C)C(=O)NC(Sc1ncccn1)C(Cl)(Cl)Cl` (configuration not stated), for which the inhibition was inactive: 10.2%.

For the molecule `Clc1n[nH]nc1-c1nn[nH][15n]1`, the inhibition is inactive: 7.11%.

`CN(CCCl)Cc1cc(Cl)c(NC2=NCCN2)c(Cl)c1`: the inhibition was inactive: 8.54% and inactive: 16.7%.

Turning to `CCOP(=O)(Nc1ccc(C)cn1)OCC`, the inhibition is inactive: 4.15%.

As to `O=P1(Nc2ccccn2)COc2ccccc2OC1`, the inhibition is inactive: 7.14%.

With `O=P1(Nc2ccc(Br)cn2)COc2ccccc2OC1`, the inhibition is inactive: 19%.

`Cc1ccc(OCC(=O)OC2CN3CCC2CC3)cc1` (configuration not stated): the inhibition was inactive: 9.54%.

As for `O=[As](O)(c1cccs1)c1cccs1`, the inhibition is inactive: 5.22%.

As for `Nc1cccc([As](=O)(O)c2ccccc2)c1`, the inhibition is inactive: 4.31%.

With `O=P1(Nc2ncccn2)COc2ccccc2OC1`, the inhibition is inactive: 5.61%.

For `O=C(/C=C/c1ccccc1)OC1CN2CCC1CC2` (configuration not stated), the inhibition was inactive: 6.48%.

`CN(C)C1(CNC(=O)c2ccc(S(C)(=O)=O)cc2)CCCCC1`: the inhibition is inactive: 7.78%.

`CC1CCC(C(C)C)C(OP(=O)(Nc2ccccn2)c2ccccc2)C1` (configuration not stated): the inhibition was inactive: 4.97%.

Take `Cc1nn(-c2ccccc2)c2c1P(=O)(N1CCOCC1)N(C)C(c1ccccc1)=N2` (configuration not stated): the inhibition is inactive: 9.64%.

Consider `O=[N+]([O-])c1ccc(Nc2ccc(Oc3ccc([N+](=O)[O-])cc3[N+](=O)[O-])cc2)c([N+](=O)[O-])c1`, for which the inhibition was inactive: 5.67%.

Consider `Cc1cc(SC(NC=O)C(Cl)(Cl)Cl)ncn1` (configuration not stated), for which the inhibition is inactive: 9.99%.

`O=P(Nc1ccccn1)(c1cccc2ccccc12)c1cccc2ccccc12`: the inhibition is inactive: 5.33%.

For `CCOC(=O)Nc1cccc([As](=O)(O)O)c1`, the inhibition is inactive: 8.56%.

Take `Cc1cc(SC(NC(=O)c2ccccc2)C(Cl)(Cl)Cl)nc(C(C)C)n1` (configuration not stated): the inhibition is inactive: 7.3%.

For the molecule `Cc1ccc(N2C(=O)/C(=C/c3cn(CC(=O)NCc4ccco4)c4ccccc34)C(=O)NC2=S)cc1`, the inhibition was inactive: 15.2%.

Turning to `CCOC(=O)Nc1ccc([As](=O)(O)O)c(O)c1`, the inhibition is inactive: 9.02%.

As to `CCC(C)N(CC(C)C)C(=S)SC(NC(C)=O)C(Cl)(Cl)Cl` (configuration not stated), the inhibition is inactive: 8.38%.

Turning to `CCOC(=O)c1ccc(NC(=O)C(C)(CCl)SC)cc1` (configuration not stated), the inhibition was inactive: 7.09%.

In the case of `O=C(O)[C@@H](O)c1ccc([As](=O)(O)O)cc1`, the inhibition was inactive: 9.82%.

Take `COP1(=S)c2c(C)nn(CCC#N)c2N=C(c2ccc(F)cc2)N1C` (configuration not stated): the inhibition was inactive: 7.22%.

For the molecule `COc1ccc(N/C(=N/P(=O)(N2CCOCC2)N2CCOCC2)N2CCOCC2)cc1`, the inhibition is inactive: 6.53%.

As to `COc1cc(I)ccc1[As](=O)(O)O`, the inhibition is inactive: 4.28%.

As to `NC(=O)Nc1cc([As](=O)(O)O)cc(I)c1O`, the inhibition is inactive: 37.5%.

Turning to `COc1ccc2nc(NP(=O)(c3ccccc3)c3ccccc3)sc2c1`, the inhibition was inactive: 2.69%.

Consider `Cc1cc(=O)[nH]c(N[N+](=O)[O-])n1`, for which the inhibition is inactive: 9.42%.

As for `O=C(OC1CN2CCC1CC2)C12CC3CC(CC(C3)C1)C2` (configuration not stated), the inhibition is inactive: 9.52%.

`Cc1c2c(nc3ccccc13)SC(C(Cl)Cl)C2` (configuration not stated): the inhibition was inactive: 8.03%.

Consider `Cc1ccc(-c2nnc3n2CC(CI)S3)cc1` (configuration not stated), for which the inhibition was inactive: 25.4%.

In the case of `O=[N+]([O-])c1cc([N+](=O)[O-])c(-c2ccn[nH]2)s1`, the inhibition is inactive: 6.6%.

Regarding `CCN(CC)C(=S)SC(NC=O)C(Cl)(Cl)Cl` (configuration not stated), the inhibition is inactive: 6.63%.

Take `CC(C)NC(=O)NP(=O)(Oc1ccccc1)Oc1ccccc1`: the inhibition was inactive: 10%.

As for `CC(C)c1ccc(OP(=O)(Nc2ccccn2)Oc2ccccc2F)cc1` (configuration not stated), the inhibition is inactive: 10.6%.

Consider `[N-]=[N+]=NCC(N)=O`, for which the inhibition was inactive: 15.4%.

For the molecule `ClCCSc1nnc(-c2cccnc2)o1`, the inhibition was inactive: 10.6%.

Consider `O=[As]c1ccc(S(=O)(=O)NCCO)cc1` (configuration not stated), for which the inhibition was inactive: 5.22%.

As to `Cc1ccc2nc3c(c(C)c2c1)CC(C(Cl)Cl)S3` (configuration not stated), the inhibition is inactive: 10.1%.

`Cc1ccc(OP(=O)(Nc2ccc([N+](=O)[O-])cn2)Oc2ccc(C)cc2)cc1`: the inhibition is inactive: 13.9%.

For the molecule `C[As](=O)(O)c1cccc(C(=O)O)c1`, the inhibition is inactive: 15.7%.

As for `O=[As](O)(c1ccc(O)cc1)c1ccccc1O`, the inhibition was inactive: -0.7%.
